This note sets out measurements from patent publication US8822460B2, “Fused cyclopentyl antagonists of CCR2” (Janssen Pharmaceutica, NV, priority 2012, dated 2014).

Sequences of proteins named here, by UniProt entry; tags and fusion partners are left off. A change or cut given only in a name is not applied to a line headed by its entry.
UniProt P41597: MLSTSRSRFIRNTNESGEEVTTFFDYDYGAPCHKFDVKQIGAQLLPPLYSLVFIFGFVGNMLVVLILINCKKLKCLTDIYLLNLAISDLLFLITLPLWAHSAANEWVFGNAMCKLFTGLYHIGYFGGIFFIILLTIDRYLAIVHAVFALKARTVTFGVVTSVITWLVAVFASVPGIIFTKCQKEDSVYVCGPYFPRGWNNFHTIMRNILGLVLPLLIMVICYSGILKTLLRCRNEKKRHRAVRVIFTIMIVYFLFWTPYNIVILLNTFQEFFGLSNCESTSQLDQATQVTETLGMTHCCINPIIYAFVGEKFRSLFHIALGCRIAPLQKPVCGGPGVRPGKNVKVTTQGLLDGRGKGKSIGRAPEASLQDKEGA

The target in the assay is CCR2 (Homo sapiens (Human), UniProt P41597). Kind of assay: MCP-1 Receptor Binding Assay in THP-1 Cells. Particulars: 0.5 nM 125I labeled MCP-1, THP-1 cells, 2 hours at 30° C.; read-out: Inhibition of MCP-1 Binding IC50, CCR2 Binding. On the procedure: Human monocytic cell line THP-1 cells were obtained from American Type Culture Collection (Manassas, Va., USA). […] The cell density was maintained […].
1 μM cold MCP-1 was used for nonspecific binding.

In general, IC50 refers to the concentration that inhibits the measured activity by half.

For the compound `O=C(N1CCc2ccc(C(F)(F)F)cc2C1)[C@@]12CCO[C@@H]1C[C@@H](NC1CCOCC1)C2` [Example 8, ((3aS,5S,6aR)-5-((tetrahydro-2H-pyran-4-yl)amino)hexahydro-2H-cyclopenta[b]furan-3a-yl)(7-(trifluoromethyl)-3,4-dihydroisoquinolin-2(1H)-yl)methanone], the IC50 came to 3 nM.
As to `COC1COCCC1N[C@@H]1C[C@H]2OC(C)C[C@@]2(C(=O)N2CCc3ncc(C(F)(F)F)cc3C2)C1` (stereo partly drawn) [Example 12, ((3aS,5S,6aR)-5-((3-methoxytetrahydro-2H-pyran-4-yl)amino)-2-methylhexahydro-2H-cyclopenta[b]furan-3a-yl)(3-(trifluoromethyl)-7,8-dihydro-1,6-naphthyridin-6(5H)-yl)methanone], the IC50 is 24 nM.
For the compound `CCCC1C[C@@]2(C(=O)N3CCc4ncc(C(F)(F)F)cc4C3)C[C@H](NC3CCOCC3OC)C[C@H]2O1` (stereo partly drawn) [Example 13, ((3aS,5S,6aR)-5-((3-methoxytetrahydro-2H-pyran-4-yl)amino)-2-propylhexahydro-2H-cyclopenta[b]furan-3a-yl)(3-(trifluoromethyl)-7,8-dihydro-1,6-naphthyridin-6(5H)-yl)methanone], the IC50 turned out to be 20 nM.
`COC1COCCC1N[C@@H]1C[C@H]2OC(=O)C[C@@]2(C(=O)N2CCc3ncc(C(F)(F)F)cc3C2)C1` (stereo partly drawn) [Example 21, (3aS,5S,6aR)-5-((3-methoxytetrahydro-2H-pyran-4-yl)amino)-3a-(3-(trifluoromethyl)-5,6,7,8-tetrahydro-1,6-naphthyridine-6-carbonyl)hexahydro-2H-cyclopenta[b]furan-2-one]: the IC50 amounted to 120 nM.
